Earlier results in patent US20060172019A1 (priority 2003, published 2006).

Protein sequences, listed by entry. Tags and fused reporters are not part of them.
UniProt P34972, whole entry: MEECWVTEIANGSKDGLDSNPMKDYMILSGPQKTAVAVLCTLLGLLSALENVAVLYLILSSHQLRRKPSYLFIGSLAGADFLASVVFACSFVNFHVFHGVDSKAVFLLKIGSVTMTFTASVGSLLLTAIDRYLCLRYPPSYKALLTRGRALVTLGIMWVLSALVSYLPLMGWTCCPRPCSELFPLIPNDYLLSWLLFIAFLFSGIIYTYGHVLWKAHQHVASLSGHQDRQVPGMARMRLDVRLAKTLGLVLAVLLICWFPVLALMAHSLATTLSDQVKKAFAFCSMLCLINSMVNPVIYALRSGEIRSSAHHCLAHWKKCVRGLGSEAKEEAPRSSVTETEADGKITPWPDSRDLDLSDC

Target: CB2 receptor (Homo sapiens, UniProt P34972)
Settings: cited from earlier work

Cc1ccc(Cn2nc(C(=O)NC3C4(C)CCC(C4)C3(C)C)cc2-c2ccc(Cl)c(C)c2)cc1 [SR144528, 5-(4-Chloro-3-methyl-phenyl)-1-(4-methyl-benzyl)-1H-pyrazole-3-carboxylic acid ((1S)-1,3,3-trimethylbicyclo[2.2.1]hept-2endo,exo-yl)-amide]
Classification CB2 (Table 1): Inverse agonist | CB receptor function (CB2) (Table 2): CB2 inverse agonist
